From ChEMBL document CHEMBL1132981 (J Med Chem, 2000)

The chains behind the UniProt entries cited, without tags or fusion partners. Where a name states a change or a piece, a line headed by the entry shows the natural chain unless it says otherwise.
UniProt P30542, whole entry, looked up: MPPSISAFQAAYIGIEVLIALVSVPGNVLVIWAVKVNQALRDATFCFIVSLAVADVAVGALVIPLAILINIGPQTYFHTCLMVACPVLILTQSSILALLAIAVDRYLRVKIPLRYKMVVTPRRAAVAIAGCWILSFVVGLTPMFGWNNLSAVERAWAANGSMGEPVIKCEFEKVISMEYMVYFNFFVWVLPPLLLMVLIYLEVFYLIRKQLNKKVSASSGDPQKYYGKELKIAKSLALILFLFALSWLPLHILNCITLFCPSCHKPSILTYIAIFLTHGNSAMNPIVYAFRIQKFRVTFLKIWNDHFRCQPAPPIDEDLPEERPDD
UniProt P29275: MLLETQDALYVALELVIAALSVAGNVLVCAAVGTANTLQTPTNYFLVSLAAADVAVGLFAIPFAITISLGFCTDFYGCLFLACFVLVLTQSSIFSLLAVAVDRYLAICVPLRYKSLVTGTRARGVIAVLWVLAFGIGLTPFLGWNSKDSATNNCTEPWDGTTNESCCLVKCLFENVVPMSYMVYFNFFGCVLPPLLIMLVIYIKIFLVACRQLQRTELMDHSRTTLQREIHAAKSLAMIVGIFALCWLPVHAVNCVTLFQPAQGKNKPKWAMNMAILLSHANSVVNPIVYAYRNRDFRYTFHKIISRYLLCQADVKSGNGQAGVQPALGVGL
UniProt P0DMS8, whole entry, looked up: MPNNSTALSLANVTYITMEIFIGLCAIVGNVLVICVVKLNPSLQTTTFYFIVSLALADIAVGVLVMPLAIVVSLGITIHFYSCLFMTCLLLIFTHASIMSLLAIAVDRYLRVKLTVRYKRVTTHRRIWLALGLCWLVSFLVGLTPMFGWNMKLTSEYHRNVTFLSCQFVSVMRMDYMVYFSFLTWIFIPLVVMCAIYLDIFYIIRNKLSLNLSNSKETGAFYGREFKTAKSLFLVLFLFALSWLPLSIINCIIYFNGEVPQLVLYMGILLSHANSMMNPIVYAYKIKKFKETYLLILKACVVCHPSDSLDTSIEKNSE

Assays:
[1] = target: Adenosine receptors; A1 & A2b (Homo sapiens) (UniProt P30542+P29275); test: Selectivity ratio of hA1 to hA2B; assay type: protein assay
[2] = target: Adenosine receptors; A2b & A3 (Homo sapiens) (UniProt P29275+P0DMS8); test: Selectivity ratio of hA3 to hA2B; assay type: protein assay

A Ratio [1] of 27 and a Ratio [2] of 39 were found for `CCCn1c(=O)c2nc(-c3ccc(OCC(=O)NCc4ccccc4)cc3)[nH]c2n(CCC)c1=O` in this work.
